## Ab-91 heavy chain CDR variants: yeast mating affinities

Target peptide (SARS-CoV-2 spike, HR2 region): PDVDLGDISGINAS

Each scFv is VL, a 15-residue (Gly4Ser)3 linker, VH, as in the parent Ab-91, and differs from it in the CDRs of the heavy chain only.
VL: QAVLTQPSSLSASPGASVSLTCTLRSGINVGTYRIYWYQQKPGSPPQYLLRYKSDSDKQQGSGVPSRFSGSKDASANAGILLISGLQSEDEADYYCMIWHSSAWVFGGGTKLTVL
VH: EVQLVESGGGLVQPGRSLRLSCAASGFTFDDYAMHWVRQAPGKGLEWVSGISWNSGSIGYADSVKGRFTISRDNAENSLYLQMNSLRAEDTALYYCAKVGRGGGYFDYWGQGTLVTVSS

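The parent was found by panning a naive human phage display library on the peptide. AAYL51 was designed without a model: most single CDR substitutions and a random sample of double and triple ones. Affinity was read by AlphaSeq, a pooled yeast mating assay with surface-displayed partners. Binding brings cells together so that they mate, and sequencing counts the barcode pairs among the diploids. The ratio of observed to expected reads was calibrated, replicate by replicate, on BCL2-family standards whose Kd was known from biolayer interferometry. There are three technical replicates.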

Positions count from residue 1 of the parent VH; Y32P puts P in place of Y. Numbers give log10(Kd / nM), so 0 is 1 nM and 3 is 1 µM. Smaller is tighter. Replicates are averaged; those with no signal do not enter the mean. Where no diploid with the target was found in that replicate, the entry reads "n.d.": below detection, most likely a poor binder, though not proof of it.

changes	log10 Kd, replicates	log10 Kd (nM), mean	empty controls
Y32P G56S Y60S	n.d. / n.d. / n.d.	n.d.	0/9
I58L V64I D107E	n.d. / n.d. / n.d.	n.d.	5/9 (3.80)
A33N A61M	n.d. / n.d. / n.d.	n.d.	0/9
G59S Y60T G103H	n.d. / 5.62 / n.d.	5.62	3/9 (4.52)
D30L M34D	5.36 / n.d. / n.d.	5.36	2/9 (5.52)
I51A K65H F106T	n.d. / n.d. / 4.82	4.82	0/9
M34Y N54P S55D	n.d. / 4.75 / n.d.	4.75	0/9
M34E I58D G102E	4.38 / 5.65 / n.d.	5.02	4/9 (4.28)
D62I G104W Y105S	1.87 / 1.91 / 1.94	1.91	0/9
I51L W53P Y105D	4.22 / 5.91 / 4.16	4.76	1/9 (3.59)
D31F N54A V64A	n.d. / n.d. / n.d.	n.d.	2/9 (4.65)
D30W R101I	2.56 / 2.17 / 3.13	2.62	2/9 (2.70)
D30R S55C A61S	1.54 / 1.48 / 0.83	1.28	2/9 (3.90)
G26Y F27V G103I	n.d. / n.d. / n.d.	n.d.	0/9
S63Q V99C Y105D	n.d. / n.d. / n.d.	n.d.	0/9
A61Q R101F G104N	n.d. / n.d. / n.d.	n.d.	0/9
H35E V99N	5.53 / 4.76 / n.d.	5.15	3/9 (4.15)
A33F G50F V99K	2.70 / 3.44 / n.d.	3.07	0/9
G59C D62M V99M	n.d. / n.d. / n.d.	n.d.	0/9
F29L N54A Y108F	n.d. / n.d. / n.d.	n.d.	1/9 (4.52)
G26L S55V F106C	n.d. / n.d. / n.d.	n.d.	0/9
N54P D62W G100K	n.d. / n.d. / n.d.	n.d.	1/9 (4.48)
Y60W V99N G102Y	n.d. / 5.58 / n.d.	5.58	1/9 (4.59)
G50W D62A K65M	n.d. / n.d. / n.d.	n.d.	1/9 (2.98)
H35P G56E G59V	5.74 / 5.04 / n.d.	5.39	6/9 (4.56)
G50L K65T F106S	n.d. / n.d. / n.d.	n.d.	1/9 (2.82)
Y60M G102A Y108R	3.39 / n.d. / n.d.	3.39	0/9
F27C Y60V K65V	n.d. / n.d. / n.d.	n.d.	0/9
H35V S57V A61P	4.50 / 5.22 / 4.90	4.87	9/9 (5.03)
S55Q D62Q Y108R	1.84 / 1.80 / 1.05	1.56	4/9 (4.66)
S63D K65F D107H	n.d. / n.d. / n.d.	n.d.	0/9
G56Y S57H K65N	2.83 / 2.36 / 2.86	2.68	1/9 (5.33)
V99S G103N Y108S	3.66 / n.d. / n.d.	3.66	1/9 (2.71)
I58Q Y105G Y108F	5.56 / 5.55 / 4.40	5.17	2/9 (4.36)
G26W A61S Y108W	n.d. / n.d. / n.d.	n.d.	3/9 (4.17)
G59A S63G Y105T	n.d. / n.d. / 3.81	3.81	1/9 (4.05)
S57R D62S G100D	n.d. / 3.91 / n.d.	3.91	1/9 (4.22)
F29W S52C A61H	4.61 / 4.73 / n.d.	4.67	7/9 (4.87)
T28A Y105P D107P	n.d. / n.d. / n.d.	n.d.	1/9 (4.05)
G56T G59M Y108T	n.d. / n.d. / n.d.	n.d.	0/9
A33N K65T Y108P	n.d. / n.d. / 4.03	4.03	3/9 (4.35)
I58H G103M	n.d. / n.d. / n.d.	n.d.	0/9
A33T S55A F106H	n.d. / n.d. / n.d.	n.d.	0/9

6 of these entries, quoted again:

| changes | log10 Kd, replicates | log10 Kd (nM), mean | empty controls |
|---|---|---|---|
| M34Y N54P S55D | n.d. / 4.75 / n.d. | 4.75 | 0/9 |
| I58Q Y105G Y108F | 5.56 / 5.55 / 4.40 | 5.17 | 2/9 (4.36) |
| I51L W53P Y105D | 4.22 / 5.91 / 4.16 | 4.76 | 1/9 (3.59) |
| I51A K65H F106T | n.d. / n.d. / 4.82 | 4.82 | 0/9 |
| I58L V64I D107E | n.d. / n.d. / n.d. | n.d. | 5/9 (3.80) |
| A61Q R101F G104N | n.d. / n.d. / n.d. | n.d. | 0/9 |

Parent in this assay: reference entry 1.86, copy in this library 0.88. Nonspecific signal, from three strains lacking the peptide, appeared in 21% of pairings of library AAYL51, centred on 4.54 (5% of these signals below 3.26); values are not corrected for it. The control count says in how many pairings with the empty strains this scFv gave a signal, with their mean in brackets.

Source: Engelhart et al. 2022 (doi:10.1038/s41597-022-01779-4), MIT Lincoln Laboratory and A-Alpha Bio; data file from the FLAb repository.